pIC50: −log10 of the molar value.
Target: BTK kinase (Homo sapiens (Human), UniProt Q06187)
Experiment: BTK kinase experiment (ADP-Glo)
Conditions: read-out: BTK IC50; 2 μM ATP, PolyE4Y1 substrate, 30 minutes pre-incubation
Experimental: BTK kinase, PolyE4Y1 substrate and Kinase assay buffer III were purchased from Signalchem; ADP-Glo Kinase Assay was purchased from Promega; Nivo multi-label analyzer (PerkinElmer).
1× buffer preparation (which was prepared and used immediately): Kinase assay buffer III was diluted with ddH2O to 1× assay buffer for later use.
The compound to be tested was diluted with 100% DMSO to 10 μM as the first concentration, and followed by a 5-fold dilution to the 8th concentration using a multi-channel pipette, i.e., it was diluted from 10 μM to 0.128 nM.
Each gradient of the compound to be tested was diluted into a working solution with 5% DMSO using 1× buffer, 1 μL/well was added to the corresponding well, and a double-replicate well experiment was set up. 2 μL of BTK enzyme (4 ng) was add to each well and incubating at 25° C. for 30 minutes. After the incubation was completed, 2 μL of a mixture of substrate and ATP (2 μM ATP, 0.2 μg/μL PolyE4Y1) was added to each well and incubating at 25° C. for 120 minutes. At this point, the final concentration gradient of the compound was diluted from 100 nM to 0.00128 nM. […] After reacting at 25° C. for 30 minutes, PerkinElmer Nivo multi-label analyzer was used to read the chemiluminescence, and the integration time was 0.5 seconds. […]

Chains of the proteins cited; added tags and fusions are not shown.
UniProt Q06187, whole entry: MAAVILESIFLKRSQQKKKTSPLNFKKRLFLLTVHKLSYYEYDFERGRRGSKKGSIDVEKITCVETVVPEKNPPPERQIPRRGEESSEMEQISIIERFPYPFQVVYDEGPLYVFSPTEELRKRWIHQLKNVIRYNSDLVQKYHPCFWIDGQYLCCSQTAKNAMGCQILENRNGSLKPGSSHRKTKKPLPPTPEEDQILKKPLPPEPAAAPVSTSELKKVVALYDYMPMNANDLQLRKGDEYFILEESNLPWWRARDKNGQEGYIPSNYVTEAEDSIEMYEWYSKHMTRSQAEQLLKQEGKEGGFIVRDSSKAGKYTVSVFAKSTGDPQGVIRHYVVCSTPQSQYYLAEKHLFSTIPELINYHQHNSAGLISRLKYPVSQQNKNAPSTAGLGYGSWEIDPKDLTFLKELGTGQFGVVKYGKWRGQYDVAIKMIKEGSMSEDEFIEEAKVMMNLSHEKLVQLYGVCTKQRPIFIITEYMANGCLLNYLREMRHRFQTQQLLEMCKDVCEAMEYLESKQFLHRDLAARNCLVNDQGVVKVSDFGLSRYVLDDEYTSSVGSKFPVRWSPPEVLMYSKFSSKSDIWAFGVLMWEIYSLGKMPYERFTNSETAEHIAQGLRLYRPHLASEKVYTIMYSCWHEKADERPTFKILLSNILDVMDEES

**Q.** How did the pIC50 turn out when `Nc1nccc2c1n(-c1ccc(Oc3ccccc3)cc1)c(=O)n2C1CCN(C(=O)/C=C/CF)C1` (single isomer, unassigned) [003A] was run?
**A.** 8.36
